Experimental data taken from PubChem BioAssay AID623877 (Johns Hopkins Ion Channel Center, 2012).
The list shows a part of the results, in another mix than the full data. Active and inactive are the calls of the source.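 The calls were made as follows: active = fluorescence-ratio B-score plate-corrected deviation score at least 3 library SD below zero, with starting fluorescence score within 5 deviations; inactive = the rest.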

Protein sequences, listed by entry. Tags and fused reporters are not part of them.
UniProt Q8BHY3, whole entry: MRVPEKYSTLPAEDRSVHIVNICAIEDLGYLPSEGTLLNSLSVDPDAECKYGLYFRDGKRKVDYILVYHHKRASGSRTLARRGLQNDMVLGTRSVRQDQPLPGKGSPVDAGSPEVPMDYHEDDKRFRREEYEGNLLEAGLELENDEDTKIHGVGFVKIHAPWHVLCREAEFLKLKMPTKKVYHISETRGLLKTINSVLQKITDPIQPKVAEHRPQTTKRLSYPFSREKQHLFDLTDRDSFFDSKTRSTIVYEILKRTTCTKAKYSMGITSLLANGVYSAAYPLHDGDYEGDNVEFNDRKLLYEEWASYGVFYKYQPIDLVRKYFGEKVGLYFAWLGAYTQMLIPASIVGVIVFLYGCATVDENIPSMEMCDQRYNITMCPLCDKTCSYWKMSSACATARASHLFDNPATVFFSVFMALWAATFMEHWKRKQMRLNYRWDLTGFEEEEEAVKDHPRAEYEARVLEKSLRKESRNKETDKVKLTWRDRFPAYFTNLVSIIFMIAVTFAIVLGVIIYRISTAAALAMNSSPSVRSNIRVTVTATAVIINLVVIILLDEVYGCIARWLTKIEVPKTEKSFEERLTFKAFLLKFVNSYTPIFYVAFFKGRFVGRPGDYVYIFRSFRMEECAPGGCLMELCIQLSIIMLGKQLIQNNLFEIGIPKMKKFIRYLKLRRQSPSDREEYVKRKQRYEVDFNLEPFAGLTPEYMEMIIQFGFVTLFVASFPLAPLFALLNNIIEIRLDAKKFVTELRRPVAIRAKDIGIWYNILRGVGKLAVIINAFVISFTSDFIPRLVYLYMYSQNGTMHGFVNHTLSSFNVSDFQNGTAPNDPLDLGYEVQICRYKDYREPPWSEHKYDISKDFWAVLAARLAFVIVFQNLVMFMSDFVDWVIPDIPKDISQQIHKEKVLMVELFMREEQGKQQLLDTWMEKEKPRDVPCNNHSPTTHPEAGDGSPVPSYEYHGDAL

target: Anoctamin-1 (Mus musculus) (UniProt Q8BHY3); assay: TMEM16A chloride channel activators or potentiators, primary screen, cell-based, HTS (AID 623877); settings: HEK293 TMEM16A/YFP-H148Q/I152L, iodide quench fluorescence, at 10 µM

Row | Structure (SMILES) | outcome
1 | CN(C)C(=O)OCCc1n(C)cc[n+]1C | inactive
2 | CC1CCN(C(=O)Oc2c(Cl)cc(Cl)c3cccnc23)CC1 | inactive
3 | CC(C)(C)c1ccc(OP(C)(=O)O)cc1 | inactive
4 | Nc1ccc([As](=O)(O)c2ccc(N)cc2)cc1 | inactive
5 | COc1ccccc1OP(C)(=O)Nc1ccccc1Br (centres undefined) | inactive
6 | C[N+]1=C2C=CC=CC=C2SC12C([N+](=O)[O-])=CC([N+](=O)[O-])=C[C-]2[N+](=O)[O-] (centres undefined) | inactive
7 | CCN(/C(=N/P(=O)(N1CCOCC1)N1CCOCC1)N1CCOCC1)c1ccc(OC)cc1 | inactive
8 | CP(=O)(Nc1ccc(Cl)cc1)Oc1ccc(F)cc1 (centres undefined) | inactive
9 | CCOC(=O)c1ccc(NP(C)(=O)Oc2ccc(Cl)cc2)cc1 (centres undefined) | inactive
10 | O=C(Nc1cc([As](=O)(O)O)ccc1O)c1ccccc1 | inactive
11 | CP(=O)(OC12CC3CC(CC(C3)C1)C2)OC12CC3CC(CC(C3)C1)C2 | inactive
12 | Nc1ccc2c(ccc3cccnc32)n1.O=[N+]([O-])c1cc([N+](=O)[O-])c(O)c([N+](=O)[O-])c1 | inactive
13 | O=P1(N(CCCl)CCCl)OCCCS1 (centres undefined) | inactive
14 | O=[N+]([O-])c1cccc(NC2=NCC(CBr)S2)c1 (centres undefined) | inactive
15 | COC(=O)C1(C)COP(=O)(Nc2ccccc2)OC1 (centres undefined) | inactive
16 | O=C(O)CNc1ccc([As](=O)(O)O)cc1 | inactive
17 | CC(C)(C)C(=O)NC(Sc1ccncn1)C(Cl)(Cl)Cl (centres undefined) | inactive
18 | O=[N+]([O-])c1ncn(CCn2ncnc2[N+](=O)[O-])n1 | inactive
19 | CCCCOc1ccc(C(=O)NCC2(N3CCCCC3)CCCCC2)cc1OC | inactive
20 | Cc1cc(SC(NC(=O)c2ccccc2)C(Cl)(Cl)Cl)nc(C(C)C)n1 (centres undefined) | inactive
21 | CC1CCNP(=O)(N(CCCl)CCCl)O1 (centres undefined) | inactive
22 | CCOC(=O)Nc1ccc([As](=O)(O)O)c(O)c1 | inactive
23 | CP(=O)(Nc1ccccc1Br)Oc1ccccc1 (centres undefined) | inactive
24 | O=[N+]([O-])c1ccc(Nc2ccc(Oc3ccc([N+](=O)[O-])cc3[N+](=O)[O-])cc2)c([N+](=O)[O-])c1 | inactive
25 | O=P(Nc1ccccn1)(c1cccc2ccccc12)c1cccc2ccccc12 | inactive

Row | Structure (SMILES) | outcome
26 | Cc1cc(SC(NC=O)C(Cl)(Cl)Cl)ncn1 (centres undefined) | inactive
27 | COc1ccccc1OP(C)(=O)Nc1ccccc1 (centres undefined) | inactive
28 | CCOC(=O)Nc1cccc([As](=O)(O)O)c1 | inactive
29 | CP(=S)(Nn1cnnc1)Oc1ccccc1 (centres undefined) | inactive
30 | CCc1ccc(OP(C)(=O)N2CCN(c3ccc([N+](=O)[O-])cc3)CC2)cc1 (centres undefined) | inactive
31 | O=C(COc1ccccc1)OC1CN2CCC1CC2 (centres undefined) | inactive
32 | CP(=O)(NC(=O)Nc1ccccc1)Oc1ccccc1 (centres undefined) | inactive
33 | Cc1cc(C)cc(OP(C)(=O)Nc2ccc(SC(F)(F)F)cc2)c1 (centres undefined) | inactive
34 | O=C(Nc1ccncc1[N+](=O)[O-])c1ccc([N+](=O)[O-])cc1[N+](=O)[O-] | inactive
35 | Cc1cccc(C)c1OP(C)(=O)Nc1ccc(SC(F)(F)F)cc1 (centres undefined) | inactive
36 | CP(=O)(Nc1ccc(SC(F)(F)F)cc1)Oc1ccc(Cl)cc1 (centres undefined) | inactive
37 | COP1(=S)c2c(C)nn(CCC#N)c2N=C(c2ccc(F)cc2)N1C (centres undefined) | inactive
38 | CP(=O)(Oc1ccccc1)OC(c1ccccc1)C(F)(F)F (centres undefined) | inactive
39 | CP(=O)(Nc1ccccn1)Oc1ccc(Cl)cc1 (centres undefined) | inactive
40 | CCC(C)N(CC(C)C)C(=S)SC(NC(C)=O)C(Cl)(Cl)Cl (centres undefined) | inactive
41 | CCOC(=O)c1ccc(NP(C)(=O)Oc2ccc(OC)cc2)cc1 (centres undefined) | inactive
42 | CCOC(=O)c1ccc(NC(=O)C(C)(CCl)SC)cc1 (centres undefined) | inactive
43 | O=[N+]([O-])c1cc([N+](=O)[O-])c(O)c([N+](=O)[O-])c1.c1ccc(Oc2ccncc2)cc1 | inactive
44 | CCOP(C)(=S)SCC(=O)NC(C)C(=O)O (centres undefined) | inactive
45 | O=C(OC1CN2CCC1CC2)c1cccc([N+](=O)[O-])c1 (centres undefined) | inactive
46 | COc1ccc2nc(NP(=O)(c3ccccc3)c3ccccc3)sc2c1 | inactive
47 | COc1cc(I)ccc1[As](=O)(O)O | inactive
48 | O=P1(N(CCCl)CCCl)Nc2ccccc2N1 | inactive
49 | O=P1(N(CCCl)CCCl)OCCCN1CCCl (centres undefined) | inactive
50 | O=C(OC1CN2CCC1CC2)C12CC3CC(CC(C3)C1)C2 (centres undefined) | inactive

Row | Structure (SMILES) | outcome
51 | CCN(CC)CCCOC(=O)C(O)(c1ccccc1)c1ccccc1 | inactive
52 | Cc1cc(=O)[nH]c(N[N+](=O)[O-])n1 | inactive
53 | Cc1c2c(nc3ccccc13)SC(C(Cl)Cl)C2 (centres undefined) | inactive
54 | COc1ccc(N/C(=N/P(=O)(N2CCOCC2)N2CCOCC2)N2CCOCC2)cc1 | inactive
55 | O=[N+]([O-])c1cc(Oc2ccc([N+](=O)[O-])cc2C(F)(F)F)cc([N+](=O)[O-])c1 | inactive
56 | Cc1ccc2nc3c(c(C)c2c1)CC(C(Cl)Cl)S3 (centres undefined) | inactive
57 | O=[N+]([O-])c1ccc2c(c1)C=Nc1ccccc1O2 | inactive
58 | CC(C)(C)c1ccc(OP(C)(=O)Nc2ccc(SC(F)(F)F)cc2)cc1 (centres undefined) | inactive
59 | Cc1ccc(OP(=O)(Nc2ccc([N+](=O)[O-])cn2)Oc2ccc(C)cc2)cc1 | inactive
60 | Cc1cccc(C)c1OP(C)(N)=O (centres undefined) | inactive
61 | O=[As](O)(c1ccc(O)cc1)c1ccccc1O | inactive
62 | C[As](=O)(O)c1cccc(C(=O)O)c1 | inactive
63 | COc1cc(C(=O)NCC2(N3CCOCC3)CCCCC2)ccc1OCC(C)C | inactive
64 | O=[N+]([O-])c1ccc(-c2cc([N+](=O)[O-])c(O)c([N+](=O)[O-])c2)cc1 | inactive
65 | O=[N+]([O-])c1cc([N+](=O)[O-])c(Nc2cccnc2)c([N+](=O)[O-])c1 | inactive
66 | Cc1cc(C)cc(OP(C)(N)=O)c1 (centres undefined) | inactive
67 | O=C(OC1CN2CCC1CC2)c1cccc2[nH]cnc12 (centres undefined) | inactive
68 | CCN(CC)C(=S)SC(NC=O)C(Cl)(Cl)Cl (centres undefined) | inactive
69 | COc1ccccc1OP(C)(=O)Nc1cc(Cl)ccc1C (centres undefined) | inactive
70 | CC(C)NC(=O)NP(=O)(Oc1ccccc1)Oc1ccccc1 | inactive
71 | O=[N+]([O-])c1cc([N+](=O)[O-])c(-c2ccn[nH]2)s1 | inactive
72 | COc1ccc(OP(C)(=O)Nc2cccc(F)c2)cc1 (centres undefined) | inactive
73 | COc1ccccc1OP(C)(=O)Nc1ccc(C)cc1 (centres undefined) | inactive
74 | CC(C)c1ccc(OP(=O)(Nc2ccccn2)Oc2ccccc2F)cc1 (centres undefined) | inactive
